The values that follow come from patent US20040037843A1, “Inducing cellular immune responses to prostate cancer antigens using peptide and nucleic acid compositions” (priority 2003, published 2004).

The target of the first test is HLA-A*0201 (Homo sapiens, UniProt P04439, D140Y/D185E/D98H/E176V/E277Q/G131W/G231S/I119V/I121R/I166T/I218V/L300P/L318F/N151K/N90K/P208A/P217A/Q86G/Q94H/R138H/R169H/T345S). Kind of test: HLA class I binding assay, purified HLA, inhibition of 125I-labelled probe peptide. To be noted: A*[…], A2 supermotif cross-reactive binding data.
For `CSCC[C@H](NC(=O)[C@@H](N)CC(C)C)C(=O)N[C@@H](CC(C)C)C(=O)N[C@@H](CC(C)C)C(=O)N[C@@H](CCCNC(=N)N)C(=O)N[C@@H](CC(C)C)C(=O)N[C@@H](CO)C(=O)N[C@@H](CCC(=O)O)C(=O)N1CCC[C@H]1C(=O)N[C@H](C(=O)O)C(C)C` [Peptide 1418.43], the IC50 came to 114 nM.
Compound `CC(C)C[C@H](NC(=O)[C@@H]1CCCN1)C(=O)N[C@H](C(=O)N[C@@H](CS)C(=O)N[C@@H](CC(N)=O)C(=O)NCC(=O)N[C@H](C(=O)N[C@@H](CC(C)C)C(=O)N[C@@H](CCC(N)=O)C(=O)NCC(=O)N[C@H](C(=O)O)C(C)C)C(C)C)C(C)C` [Peptide 1419.17] came in with an IC50 of 27 nM.
The compound `CC(C)C[C@H](NC(=O)[C@H](CO)NC(=O)[C@H](CC(C)C)NC(=O)[C@@H](N)CO)C(=O)NCC(=O)N[C@@H](Cc1ccccc1)C(=O)N[C@@H](CC(C)C)C(=O)N[C@@H](Cc1ccccc1)C(=O)N[C@@H](CC(C)C)C(=O)N[C@H](C(=O)O)C(C)C` [Peptide 1419.52] gave an IC50 of 1.8 nM.

Staying with this test, now noted: Binding affinity, Table XXII group headings ≦ 200 nM / > 200 nM; binding to HLA-A*0201.
`CC(C)C[C@H](NC(=O)[C@H](Cc1c[nH]c2ccccc12)NC(=O)[C@H](Cc1ccccc1)NC(=O)[C@H](Cc1ccccc1)NC(=O)[C@H](CC(C)C)NC(=O)[C@@H](N)CC(C)C)C(=O)N[C@@H](CC(=O)O)C(=O)N[C@@H](CCCNC(=N)N)C(=O)N[C@@H](CO)C(=O)N[C@H](C(=O)O)C(C)C` [PAP.21]: the IC50 was ≤ 200 nM.

Staying with this test, now noted: Table XXII group headings ≦ 200 nM / > 200 nM; binding to HLA-A*0201; read-out: Binding affinity.
For the compound `CC(C)C[C@H](NC(=O)[C@H](CCC(=O)O)NC(=O)[C@H](CCCCN)NC(=O)[C@H](C)NC(=O)[C@H](CC(C)C)NC(=O)[C@@H](N)C(C)C)C(=O)N[C@@H](CCCCN)C(=O)N[C@@H](Cc1ccccc1)C(=O)N[C@H](C(=O)O)C(C)C` [PAP.30], the IC50 is ≤ 200 nM.
As for `CC[C@H](C)[C@H](N)C(=O)N[C@@H](CC(C)C)C(=O)N[C@@H](CC(C)C)C(=O)N[C@@H](Cc1c[nH]c2ccccc12)C(=O)N[C@@H](CCC(N)=O)C(=O)N1CCC[C@H]1C(=O)N[C@H](C(=O)N1CCC[C@H]1C(=O)N[C@H](C(=O)O)C(C)C)[C@@H](C)CC` [PAP.135], the IC50 was ≤ 200 nM.
As to `CC[C@H](C)[C@H](N)C(=O)N[C@@H](CCSC)C(=O)N[C@@H](Cc1ccc(O)cc1)C(=O)N[C@@H](CO)C(=O)N[C@@H](C)C(=O)N[C@@H](Cc1c[nH]cn1)C(=O)N[C@@H](CC(=O)O)C(=O)N[C@H](C(=O)N[C@H](C(=O)N[C@H](C(=O)O)C(C)C)[C@@H](C)O)[C@@H](C)O` [PAP.284], the IC50 was ≤ 200 nM.
With `CSCC[C@H](NC(=O)[C@@H](N)CC(C)C)C(=O)N[C@@H](CC(C)C)C(=O)N[C@@H](CC(C)C)C(=O)N[C@@H](CCCNC(=N)N)C(=O)N[C@@H](CC(C)C)C(=O)N[C@@H](CO)C(=O)N[C@@H](CCC(=O)O)C(=O)N1CCC[C@H]1C(=O)N[C@@H](C)C(=O)O` [PSA.117], the IC50 was ≤ 200 nM.
On to `CC(C)C[C@H](NC(=O)[C@H](C)N)C(=O)NCC(=O)N[C@H](C(=O)N[C@H](C(=O)N[C@@H](CS)C(=O)N[C@@H](Cc1ccc(O)cc1)C(=O)N[C@@H](C)C(=O)O)[C@@H](C)O)[C@@H](C)O` [PSA.143], for which the IC50 is ≤ 200 nM.
The same measure, in the same setting: in the case of `CC(C)C[C@H](NC(=O)[C@H](CCCCN)NC(=O)[C@H](CCCCN)NC(=O)[C@@H]1CCCN1C(=O)[C@@H](NC(=O)[C@H](CC(C)C)NC(=O)[C@@H](N)Cc1ccccc1)[C@@H](C)O)C(=O)N[C@@H](CCC(N)=O)C(=O)N[C@@H](CS)C(=O)N[C@H](C(=O)O)C(C)C` [PSA.161] it was ≤ 200 nM; in that of `CC(C)C[C@H](NC(=O)[C@H](CC(=O)O)NC(=O)[C@@H](NC(=O)[C@H](CS)NC(=O)[C@H](CCC(N)=O)NC(=O)[C@H](CC(C)C)NC(=O)[C@@H](N)CCCCN)C(C)C)C(=O)N[C@@H](Cc1c[nH]cn1)C(=O)N[C@H](C(=O)O)C(C)C` [PSA.166], ≤ 200 nM; in that of `CC(C)C[C@H](NC(=O)[C@H](CC(C)C)NC(=O)[C@H](Cc1ccccc1)NC(=O)[C@H](Cc1ccccc1)NC(=O)CNC(=O)CNC(=O)[C@H](C)NC(=O)[C@H](CC(C)C)NC(=O)[C@@H](N)C(C)C)C(=O)O` [PSM.27], ≤ 200 nM.
Turning to `CSCC[C@H](NC(=O)CN)C(=O)N1CCC[C@H]1C(=O)N[C@@H](CCC(=O)O)C(=O)NCC(=O)N[C@@H](CC(=O)O)C(=O)N[C@@H](CC(C)C)C(=O)N[C@H](C(=O)N[C@@H](Cc1ccc(O)cc1)C(=O)N[C@H](C(=O)O)C(C)C)C(C)C` [PSM.168], the IC50 is ≤ 200 nM.
Consider `CC[C@H](C)[C@H](NC(=O)[C@H](Cc1ccc(O)cc1)NC(=O)[C@H](C)NC(=O)[C@@H](NC(=O)CNC(=O)[C@H](CCCNC(=N)N)NC(=O)[C@H](CCC(=O)O)NC(=O)[C@H](CCC(N)=O)NC(=O)[C@H](CC(C)C)NC(=O)[C@@H](N)CC(C)C)C(C)C)C(=O)O` [PSM.441], for which the IC50 is ≤ 200 nM.
Turning to `CSCC[C@H](NC(=O)[C@H](CC(C)C)NC(=O)[C@H](CCC(N)=O)NC(=O)[C@H](CC(=O)O)NC(=O)[C@H](CC(N)=O)NC(=O)[C@H](CCSC)NC(=O)[C@H](CCSC)NC(=O)[C@@H](N)CCCNC(=N)N)C(=O)N[C@@H](Cc1ccccc1)C(=O)N[C@@H](CC(C)C)C(=O)O` [PSM.662], the IC50 is ≤ 200 nM.
In the case of `CC[C@H](C)[C@H](NC(=O)[C@H](CC(=O)O)NC(=O)[C@H](Cc1ccccc1)NC(=O)[C@H](CC(C)C)NC(=O)[C@H](C)N)C(=O)N[C@@H](CCC(=O)O)C(=O)N[C@@H](CO)C(=O)N[C@@H](CCCCN)C(=O)N[C@H](C(=O)O)C(C)C` [PSM.711], the IC50 is ≤ 200 nM.

The target in a further test is HLA-A*0202 (Homo sapiens, UniProt P04439, D140Y/D185E/D98H/E176V/E277Q/G131W/G231S/I119L/I121R/I166T/I218V/L180W/L300P/L318F/N151K/N90K/P208A/P217A/Q67R/Q86G/Q94H/R138H/R169H/T345S). The test is described as above. As to conditions: A*[…], A2 supermotif cross-reactive binding data.
For the compound `CSCC[C@H](NC(=O)[C@@H](N)CC(C)C)C(=O)N[C@@H](CC(C)C)C(=O)N[C@@H](CC(C)C)C(=O)N[C@@H](CCCNC(=N)N)C(=O)N[C@@H](CC(C)C)C(=O)N[C@@H](CO)C(=O)N[C@@H](CCC(=O)O)C(=O)N1CCC[C@H]1C(=O)N[C@H](C(=O)O)C(C)C` [Peptide 1418.43], the IC50 turned out to be 67 nM.
The compound `CC(C)C[C@H](NC(=O)[C@H](C)N)C(=O)N[C@@H](Cc1ccccc1)C(=O)N1CCC[C@H]1C(=O)N1CCC[C@H]1C(=O)N[C@@H](CCC(=O)O)C(=O)NCC(=O)N[C@H](C(=O)N[C@@H](CO)C(=O)N[C@H](C(=O)O)C(C)C)C(C)C` [Peptide 1419.61] had an IC50 of 1 nM.

In a further test the target is HLA-A*6802 (Homo sapiens, UniProt P04439, A269V/D140Y/D185E/E176V/E277Q/E87N/F33Y/G231S/I121R/I166T/I218V/L180W/L300P/L318F/N151K/P208A/P217A/Q86R/R138H/R169H/S129P/T345S/V36M). The test is described as above. As to conditions: A2 supermotif cross-reactive binding data.
Turning to `CC[C@H](C)[C@H](NC(=O)[C@H](Cc1ccc(O)cc1)NC(=O)[C@H](C)NC(=O)[C@@H](NC(=O)CNC(=O)[C@H](CCCNC(=N)N)NC(=O)[C@H](CCC(=O)O)NC(=O)[C@H](CCC(N)=O)NC(=O)[C@H](CC(C)C)NC(=O)[C@@H](N)CC(C)C)C(C)C)C(=O)O` [Peptide 1129.01], the IC50 was > 10000 nM.
Regarding `CSCC[C@H](NC(=O)[C@@H](N)CC(C)C)C(=O)N[C@@H](CC(C)C)C(=O)N[C@@H](CC(C)C)C(=O)N[C@@H](CCCNC(=N)N)C(=O)N[C@@H](CC(C)C)C(=O)N[C@@H](CO)C(=O)N[C@@H](CCC(=O)O)C(=O)N1CCC[C@H]1C(=O)N[C@H](C(=O)O)C(C)C` [Peptide 1418.43], the IC50 amounted to 6150 nM.
For the compound `CC(C)C[C@H](NC(=O)[C@@H](N)C(C)C)C(=O)N[C@H](C(=O)N[C@@H](Cc1c[nH]cn1)C(=O)N1CCC[C@H]1C(=O)N[C@@H](CCC(N)=O)C(=O)N[C@@H](Cc1c[nH]c2ccccc12)C(=O)N[C@H](C(=O)N[C@@H](CC(C)C)C(=O)N[C@H](C(=O)N[C@@H](C)C(=O)O)[C@@H](C)O)C(C)C)C(C)C` [Peptide 1419.10], the IC50 is > 10000 nM.
Consider `CC(C)C[C@H](NC(=O)[C@H](CO)NC(=O)[C@H](CC(C)C)NC(=O)[C@@H](N)CO)C(=O)NCC(=O)N[C@@H](Cc1ccccc1)C(=O)N[C@@H](CC(C)C)C(=O)N[C@@H](Cc1ccccc1)C(=O)N[C@H](C(=O)O)C(C)C` [Peptide 1419.50], for which the IC50 is > 10000 nM.

A further test concerns HLA-A2 supertype molecules (A*0201, A*0202, A*0203, A*0206, A*6802). Kind of test: A2-supertype cross-reactive binding (number of the five alleles bound). The arrangement: species or system human. To be noted: number of the five A2-supertype alleles bound.
For `CSCC[C@H](NC(=O)[C@@H](N)CC(C)C)C(=O)N[C@@H](CC(C)C)C(=O)N[C@@H](CC(C)C)C(=O)N[C@@H](CCCNC(=N)N)C(=O)N[C@@H](CC(C)C)C(=O)N[C@@H](CO)C(=O)N[C@@H](CCC(=O)O)C(=O)N1CCC[C@H]1C(=O)N[C@H](C(=O)O)C(C)C` [Peptide 1418.43], the “A2 Cross-Reactivity” value worked out at 4.
Consider `CC(C)C[C@H](NC(=O)[C@@H](N)C(C)C)C(=O)N[C@H](C(=O)N[C@@H](Cc1c[nH]cn1)C(=O)N1CCC[C@H]1C(=O)N[C@@H](CCC(N)=O)C(=O)N[C@@H](Cc1c[nH]c2ccccc12)C(=O)N[C@H](C(=O)N[C@@H](CC(C)C)C(=O)N[C@H](C(=O)N[C@@H](C)C(=O)O)[C@@H](C)O)C(C)C)C(C)C` [Peptide 1419.10], for which the “A2 Cross-Reactivity” value was found to be 3.
